{
  "source": "paper PMC5383603",
  "about": "(Journal of Korean Medical Science, 2017)",
  "key": {"intragastric pH": {"test_system": "intragastric pH", "test": "24-hour intragastric pH monitoring after omeprazole by CYP2C19 phenotype", "type": "in vivo, healthy Korean volunteers", "conditions": "mean ± SD"}, "CYP2C19": {"test_system": "CYP2C19", "conditions": "greater for CYP2C19 than for CYP3A4; cited from earlier work"}, "[1]": {"conditions": "multiple dosing, 20 mg oral once daily for 8 days, EM (n = 8)"}, "[2]": {"conditions": "multiple dosing, 20 mg oral once daily for 8 days, IM (n = 8)"}, "[3]": {"conditions": "multiple dosing, 20 mg oral once daily for 8 days, PM (n = 8)"}, "[4]": {"conditions": "single dosing, 20 mg oral, EM (n = 8)"}, "[5]": {"conditions": "single dosing, 20 mg oral, IM (n = 8)"}, "[6]": {"conditions": "single dosing, 20 mg oral, PM (n = 8)"}},
  "data": [
    {"smiles": "COc1ccc2[nH]c([S+]([O-])Cc3ncc(C)c(OC)c3C)nc2c1", "note": "(stereo not shown) [omeprazole]", "values": [
      {"measurement": "% time gastric pH above 4.0", "setting": "intragastric pH; [1]", "result": "42.23 ± 19.03", "unit": "%"},
      {"measurement": "Change of mean pH", "setting": "intragastric pH; [1]", "result": "1.81 ± 1.02"},
      {"measurement": "% time gastric pH above 4.0", "setting": "intragastric pH; [2]", "result": "53.90 ± 12.10", "unit": "%"},
      {"measurement": "Change of mean pH", "setting": "intragastric pH; [2]", "result": "2.19 ± 0.74"},
      {"measurement": "% time gastric pH above 4.0", "setting": "intragastric pH; [3]", "result": "78.99 ± 15.79", "unit": "%"},
      {"measurement": "Change of mean pH", "setting": "intragastric pH; [3]", "result": "3.45 ± 0.72"},
      {"measurement": "% time gastric pH above 4.0", "setting": "intragastric pH; [4]", "result": "19.66 ± 17.07", "unit": "%"},
      {"measurement": "Change of mean pH", "setting": "intragastric pH; [4]", "result": "0.71 ± 0.78"},
      {"measurement": "% time gastric pH above 4.0", "setting": "intragastric pH; [5]", "result": "21.43 ± 7.79", "unit": "%"},
      {"measurement": "Change of mean pH", "setting": "intragastric pH; [5]", "result": "0.78 ± 0.70"},
      {"measurement": "% time gastric pH above 4.0", "setting": "intragastric pH; [6]", "result": "66.83 ± 14.06", "unit": "%"},
      {"measurement": "Change of mean pH", "setting": "intragastric pH; [6]", "result": "2.84 ± 0.48"},
      {"measurement": "affinity for CYP2C19 relative to CYP3A4", "setting": "CYP2C19", "result": "approximately 10 times"}
    ]}
  ]
}
